# Measured values reported in patent publication US7282589B2, “Acid addition salt of optically active piperidine compound and process for preparing the same” (UBE Industries, Ltd., priority 1996, dated 2007).
# Experiment: Experiment 1: crystallization of acid addition salts of (S)-piperidine compound (I)
# Assay type: physicochemical
# Settings: acid molar ratio 1
# Description: (S)-Piperidine compound of the formula (I) was dissolved in an organic solvent, and after adding an acid shown in Table 3 to make a uniform solution, the mixture was allowed to stand. When no precipitate is obtained, after the solvent was removed, a less polar solvent was added to the residue and the mixture was allowed to stand again. Except for the case where the acid addition salt is oily or syrupy, the obtained solid material was collected by filtration and dried under reduced pressure. Characteristics of the resulting various kinds of acid addition salts are oily product or hygroscopic crystals for the most of the cases as shown in Table 3.
substance,measurement,value
Succinic acid,Characteristics of acid addition salt,Oily product
